Data on one substance can be found in US20220062380A1 (priority 2018, published 2022).

This assay concerns Swiss Webster mice. As to the kind of experiment: Saelens precipitated withdrawal test, TCAP-1 in fentanyl treated mice (Example 4). Conditions: fentanyl 1 mg/kg/day infusion; TCAP-1 250 nmol/kg (and additional 500 nmol/kg day 3) vs. control; naloxone 2.5 mg/kg i.p.

As to “Teneurin C-Terminal Associated Peptide-1”, the “number of jumps/t 5-20 minutes” value is “lower number of jumps/t 5-20 minutes in a dose dependent manner than control”.
